# Test results reported in PubChem BioAssay AID624 (Vanderbilt High Throughput Screening Facility, 2007).
# By UniProt entry, the sequences of proteins in these tests, tags left out.
# UniProt P18825, whole entry: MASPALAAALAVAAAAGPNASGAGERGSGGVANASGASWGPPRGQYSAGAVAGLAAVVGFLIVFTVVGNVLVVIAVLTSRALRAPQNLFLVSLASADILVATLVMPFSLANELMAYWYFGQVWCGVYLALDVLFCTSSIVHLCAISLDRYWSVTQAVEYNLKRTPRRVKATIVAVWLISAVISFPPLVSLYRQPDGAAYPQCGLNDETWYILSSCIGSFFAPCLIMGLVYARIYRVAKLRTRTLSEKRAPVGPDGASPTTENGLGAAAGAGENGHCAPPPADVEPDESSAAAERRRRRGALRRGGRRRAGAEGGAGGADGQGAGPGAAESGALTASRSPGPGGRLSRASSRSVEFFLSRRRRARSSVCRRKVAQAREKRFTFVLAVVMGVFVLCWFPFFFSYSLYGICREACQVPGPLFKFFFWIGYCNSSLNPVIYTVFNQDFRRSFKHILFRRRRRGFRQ
# The entries are a selection whose mix differs from that of the whole data set. Active and inactive are the calls of the source.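 How the source made its calls: active means fluorescence slope after compound addition differing from the mean of all screened samples at 99.7% confidence, in either direction; inactive means the rest.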
# Target: Alpha-2C adrenergic receptor (Homo sapiens) (UniProt P18825)
# Experiment: modulators of alpha2C/GIRK thallium flux, primary screen, cell-based, HEK293 alpha2C/GIRK1/2 (AID 624);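 further: slope of fluorescence ratio to pre-addition baseline per second over 15 to 24 s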
# Conditions: thallium flux BTC fluorescence, at 10 µM, actives lie on both sides
row,SMILES,slope
1,CP(=S)(Nn1cnnc1)Oc1ccccc1 (stereo not given),inactive: 0.00597
2,Cc1ccc(C)c(NP(C)(=O)Oc2ccccc2)c1 (stereo not given),inactive: 0.00339
3,CP(=O)(Nc1ccc2c(c1)OCCO2)Oc1ccccc1 (stereo not given),inactive: 0.00621
4,CCN(CC)CC(O)COC(=O)C(O)(c1ccccc1)C1CCCCC1 (stereo not given),inactive: 0.00431
5,CP(=O)(Nc1ccccn1)Oc1ccccc1 (stereo not given),inactive: 0.00539
